Read-outs that look alike come from different tables or passages of the source.
Target: Mcl-1 (Homo sapiens, UniProt Q07820)
Experiment: FP-based binding assay, Mcl-1
Settings: for Ki / IC50: competitive FP; for Ki: Ki calculated from IC50, read-out: Mcl-1 Ki ± SD

The chains behind the UniProt entries cited, without tags or fusion partners. Residues count along the entry.
UniProt Q07820, 171-327: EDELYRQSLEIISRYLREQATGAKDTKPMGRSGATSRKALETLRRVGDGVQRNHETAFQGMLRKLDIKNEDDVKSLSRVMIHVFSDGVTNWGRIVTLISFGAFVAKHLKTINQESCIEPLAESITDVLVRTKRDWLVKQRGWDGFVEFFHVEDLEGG

binding to Mcl-1, result in words (FP assay)	Structure (SMILES)	fold improved binding to Mcl-1 compared to 2	Ki	IC50 (read-out: IC50 Mcl-1)	IC50 (Flu-BID 2 nM, Mcl-1 90 nM, read-out: Mcl-1 IC50 ± SD)
–	O=C(O)CSc1cc(NS(=O)(=O)c2ccc(Oc3ccccc3)cc2)c2ccccc2c1O [Compound 18, 2-((1-Hydroxy-4-(4-phenoxyphenylsulfonamido)naphthalen-2-yl)thio)acetic acid]	around 19 fold	0.18 ± 0.05 µM	0.74 µM	–
the binding to Mcl-1 was abolished	O=C(O)CSc1cc(NC(=O)c2ccc(Br)cc2)c2ccccc2c1O [Compound 23, 2-((4-(4-Bromobenzamido)-1-hydroxynaphthalen-2-yl)thio)acetic acid]	–	–	–	–
–	O=C(O)CSc1cc(NC(=O)Cc2ccc(Cl)cc2)c2ccccc2c1O [Compound 26, 2-((4-(2-(4-Chlorophenyl)acetamido)-1-hydroxynaphthalen-2-yl)thio)acetic acid]	–	12.5 ± 1.24 µM	–	45.7 ± 4.5 µM

From US9486422B2, “Small molecule inhibitors of Mcl-1 and the uses of thereof” (THE REGENTS OF THE UNIVERSITY OF MICHIGAN, priority 2011, dated 2016)
